We go through 2 compounds from PubChem BioAssay AID463075 (University of Pittsburgh Molecular Library Screening Center, 2010).

This is a selection; strong and weak results do not stand in their true shares. Calls of active or inactive are those of the source.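 The calls were made as follows: active = activation, meaning protection from cell death, of at least 50% relative to plate controls; inactive = activation below 50%.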

This assay is described as follows: inhibitors of TNF-alpha triggered necroptosis, primary screen, cell-based, Jurkat FADD-/-, single concentration (AID 463075).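 Also: necroptosis triggered by 40 ng/mL TNF-alpha added together with compound.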 As to conditions: Jurkat FADD-/- TNF necroptosis rescue, ATP luminescence, 24 h; at 10 µM; hits give high values; 0 = TNF only, 100 = no-TNF cells.
Regarding `CCc1nc2c(n1)c1c(non1O)c1c2no[n+]1[O-]`, the activation (protection from cell death) was inactive: -11.7%.
The same measure for `O=C(O)c1ccccc1[As](=O)(O)O`: inactive: 2.12%.
